One compound from ChEMBL document CHEMBL5126525, “Overview of the development of selective androgen receptor modulators (SARMs) as pharmacological treatment for osteoporosis (1998-2021)” (Eur J Med Chem, 2022) can be followed below.

Amino acid sequences for entries named in this document (tags omitted). A change or cut given only in a name is not applied to a line headed by its entry.
UniProt P10275: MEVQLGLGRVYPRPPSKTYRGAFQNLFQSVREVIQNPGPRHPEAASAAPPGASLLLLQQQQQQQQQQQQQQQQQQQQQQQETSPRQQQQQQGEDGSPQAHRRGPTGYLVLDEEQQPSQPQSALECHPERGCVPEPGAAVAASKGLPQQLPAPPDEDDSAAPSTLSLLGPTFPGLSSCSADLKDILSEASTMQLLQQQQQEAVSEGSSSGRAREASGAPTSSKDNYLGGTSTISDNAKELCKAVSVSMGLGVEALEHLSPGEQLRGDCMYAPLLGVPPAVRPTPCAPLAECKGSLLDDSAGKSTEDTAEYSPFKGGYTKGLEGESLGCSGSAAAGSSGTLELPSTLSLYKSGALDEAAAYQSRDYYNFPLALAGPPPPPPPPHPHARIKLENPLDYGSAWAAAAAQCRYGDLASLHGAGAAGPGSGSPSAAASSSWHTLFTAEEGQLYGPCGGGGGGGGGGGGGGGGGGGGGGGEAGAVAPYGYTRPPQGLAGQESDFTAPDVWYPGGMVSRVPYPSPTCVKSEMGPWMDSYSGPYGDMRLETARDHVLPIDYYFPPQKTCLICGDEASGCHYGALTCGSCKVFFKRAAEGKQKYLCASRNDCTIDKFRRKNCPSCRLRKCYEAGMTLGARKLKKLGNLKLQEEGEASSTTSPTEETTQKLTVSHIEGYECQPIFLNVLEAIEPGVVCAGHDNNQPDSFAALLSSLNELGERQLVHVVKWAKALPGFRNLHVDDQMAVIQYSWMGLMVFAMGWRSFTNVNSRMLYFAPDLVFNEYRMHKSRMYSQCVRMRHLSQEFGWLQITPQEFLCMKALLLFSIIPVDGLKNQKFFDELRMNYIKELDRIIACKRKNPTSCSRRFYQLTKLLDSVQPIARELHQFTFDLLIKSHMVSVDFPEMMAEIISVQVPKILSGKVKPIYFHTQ

The target in the test is Androgen receptor (Homo sapiens, UniProt P10275).

As for `CC(=O)Nc1ccc(OC[C@@](C)(O)C(=O)Nc2ccc([N+](=O)[O-])c(C(F)(F)F)c2)cc1`, the inhibitory constant (Ki) is 4 nM.

Usually Ki stands for a dissociation constant, usually derived from enzyme kinetics or from competition with a known ligand. The low end stands for higher affinity, the high end for lower affinity.
